{"sequences": {"note": "Protein sequences, listed by entry. Tags and fused reporters are not part of them. Lines headed by an entry give the natural chain unless they say otherwise; changes in a name come on top.", "UniProt P02769": "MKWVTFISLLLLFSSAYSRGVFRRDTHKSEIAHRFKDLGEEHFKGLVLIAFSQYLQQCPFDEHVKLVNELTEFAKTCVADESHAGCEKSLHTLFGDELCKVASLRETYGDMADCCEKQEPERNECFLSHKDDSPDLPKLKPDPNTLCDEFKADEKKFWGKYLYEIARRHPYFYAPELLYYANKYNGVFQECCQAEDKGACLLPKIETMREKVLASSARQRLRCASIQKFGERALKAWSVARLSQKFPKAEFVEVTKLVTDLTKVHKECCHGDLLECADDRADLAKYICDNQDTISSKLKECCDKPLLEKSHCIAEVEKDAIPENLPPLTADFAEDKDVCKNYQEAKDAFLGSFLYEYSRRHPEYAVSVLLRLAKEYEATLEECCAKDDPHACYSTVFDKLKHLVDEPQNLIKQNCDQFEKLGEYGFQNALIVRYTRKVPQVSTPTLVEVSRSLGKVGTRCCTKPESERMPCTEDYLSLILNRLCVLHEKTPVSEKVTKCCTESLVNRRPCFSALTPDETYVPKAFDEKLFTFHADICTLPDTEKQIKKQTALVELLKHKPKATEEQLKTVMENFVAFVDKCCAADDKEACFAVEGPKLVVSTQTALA"}, "source": "patent US20170001956A1", "about": "“HYDROCARBYL CARBOXYBETAINE AND METHOD FOR PREVENTING HOFMANN ELIMINATION IN ALKALINE ENVIRONMENT” (NATIONAL CHUNG CHENG UNIVERSITY, priority 2015, published 2017)", "target": "BSA (Bos taurus, UniProt P02769)", "assay": "Nonspecific adsorption test for BSA protein in SPR biosensor, gold film", "conditions": "Substrate 2; 10 minutes of protein adsorption, PBS buffer wash; FIG. 8"}
{"substance": "carboxy-beta-methyl-betaine disulfide", "values": [{"measurement": "nonspecific adsorption of BSA after PBS wash", "value": "BSA is removed from the surface"}]}
